# Compounds with a hit are over-represented: about 16% of the library has one in this group of screens.
# TDP1 inh: blocks human tyrosyl-DNA phosphodiesterase 1; Potency, µM (doses to about 130 µM), hits mostly inhibitors; actives 0.28% (n = 350,000); recombinant TDP1, AlphaScreen DNA substrate cleavage; note: nearly all actives have a fitted effect of over 40% in size
#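 Compounds were preincubated with Tdp1 (1 nM final) for 15 min at room temperature before substrate (15 nM final) started a 5 min reaction; beads (10 ug/ml final) were then added for 10 min before AlphaScreen detection.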
# DT40 TDP1 CPT: DT40-hTDP1 cell growth loss with CPT | chicken DT40 Tdp1-/-;hTDP1 cells + 20 nM CPT, ATP luminescence, 48 h | Potency, µM (series often up to 46.2 µM), actives largely listed as inhibitors | actives 12% (n = 420,000) | AID 686979; note: nearly all actives have a fitted effect of over 55% in size
#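 Chicken DT40 Tdp1-/- cells stably complemented with human TDP1 were seeded at 400 cells/well in medium containing 20 nM camptothecin, exposed to pin-transferred compounds, and grown at 37 °C for at least 48 hr. Viability was read as ATP luminescence.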
# DT40 TDP1 no CPT: qHTS for Inhibitors of human tyrosyl-DNA phosphodiesterase 1 (TDP1): qHTS in cells in absence of CPT; DT40 Tdp1-/- hTDP1 cells, no CPT, ATP luminescence, 48 h; Potency, µM (series often up to 46.2 µM), actives largely listed as inhibitors; actives 15% (n = 420,000); AID 686978, 2013; note: nearly all actives have a fitted effect of over 55% in size
#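 No-CPT arm: Tdp1-/-;hTDP1 DT40 cells (400/well) plus compounds, incubated ≥48 hr at 37 °C. Readout CellTiter-Glo luminescence.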
# miR-21 reporter: raises the signal of a miR-21 reporter | HeLa miR-21 FLuc reporter, luciferase, 48 h | Potency, µM (doses to about 38.3 µM) | 340,000 tested, under 10 active | AID 2288; active = well fitted rising curve with a large enough effect; inconclusive = small, poorly fitted or top-dose-only effect; inactive = no such curve, though single readings can be large or run the other way;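 also: miR-21 action dims this reporter so a rising signal means less miR-21 action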
#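 Luminescence from a firefly luciferase reporter carrying a miR-21 binding site downstream, stably expressed under a CMV promoter in HeLa cells that make miR-21 endogenously, reports miRNA modulation after 48 h compound exposure up to approximately 40uM final.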
# uPA generation: inhibitors of cell surface uPA generation; actives 0.31% (n = 330,000); Potency, µM (titrated, usually from 38.3 µM), usual class: inhibitors; AID 540303; cell surface uPA generation assay, qHTS; active = well fitted inhibition curve with a large enough effect; inconclusive = small, poorly fitted or top-dose-only effect; inactive = no such curve, though single readings can be large or run the other way; tested in mouse RAW 264.7 cells; note: nearly all actives have a fitted effect of over 55% in size
# Numbers stand for hits; i = inactive; ? = inconclusive; nt = no result; [ ] = another dose, or the depositor's remark. Unless noted, calls come from the whole dose curve; as a rule, active = well fitted curve in the direction sought with a large enough effect; inconclusive = small, poorly fitted or top-dose-only effect, or another doubt; inactive = no such curve, though single readings can be large; an effect the other way counts as inactive or inconclusive.
SMILES,TDP1 inh,DT40 TDP1 CPT,DT40 TDP1 no CPT,miR-21 reporter,uPA generation
CC(=O)CC1(O)C(=O)N(CN2CCN(c3ccccc3)CC2)c2ccccc21 (stereo unspecified),i,i,i,i,i
Cc1c(Cl)cccc1NC(=O)CN1C(=O)c2ccccc2Sc2ncccc21,i,?,?,i,nt
COc1ccccc1NC(=O)C(=O)N/N=C(\C)CC(=O)Nc1ccccc1C(F)(F)F,i,i,i,i,i
O=C(CCNS(=O)(=O)c1ccc(Br)cc1)NC1CCN(Cc2ccccc2)CC1,i,?,13µM,i,i
O=C(NC1CCN(Cc2ccccc2)CC1)c1ccccc1NS(=O)(=O)c1ccc(F)c(F)c1,nt,i,?,nt,i
Cc1ccc(S(=O)(=O)Nc2cccc(C(=O)NC3CCN(Cc4ccccc4)CC3)c2)cc1F,i,?,16.4µM,nt,?
O=C(NC1CCN(Cc2ccccc2)CC1)c1cccc(NS(=O)(=O)c2ccc(Br)cc2)c1,nt,18.4µM,?,nt,i
O=C(CCNS(=O)(=O)c1cccs1)NC1CCN(Cc2ccccc2)CC1,i,i,i,i,i
O=C(NC1CCN(Cc2ccccc2)CC1)c1cncc(Br)c1,i,?,i,i,i
COc1ccnc(CS(=O)c2nc3ccc(OC(F)F)cc3[nH]2)c1OC (stereo unspecified),i,?,?,nt,nt
O=C1CSC(c2ccccn2)N1c1ccc(Cl)c(Cl)c1 (stereo unspecified),i,i,i,i,i
O=S(=O)(NCc1ccccn1)C(F)(F)F,nt,i,i,i,i
O=C(/C=C/c1ccc2ccccc2n1)N1CCN(S(=O)(=O)c2ccccc2F)CC1,i,23.1µM,18.4µM,?,?
CN(Cc1nccn1C)C(=O)C1CCC(=O)N(CCc2ccc(Cl)cc2)C1 (stereo unspecified),i,i,i,i,i
Cc1c(Cl)cccc1NC(=O)CC(c1cccs1)N1Cc2ccccc2C1=O (stereo unspecified),i,16.4µM,?,?,nt
COc1cc(Cl)c(C)cc1NC(=O)CC(c1ccc(F)cc1)N1Cc2ccccc2C1=O (stereo unspecified),i,23.1µM,18.4µM,i,nt
CSc1cccc(NC(=O)CC(c2cccs2)N2Cc3ccccc3C2=O)c1 (stereo unspecified),i,16.4µM,?,i,nt
CSc1cccc(NC(=O)C(c2ccccc2)N2Cc3ccccc3C2=O)c1 (stereo unspecified),i,i,i,i,nt
Cc1c(Cl)cccc1NC(=O)CC(c1ccc(F)cc1)N1Cc2ccccc2C1=O (stereo unspecified),i,23.1µM,20.6µM,i,nt
CCCC(C(=O)Nc1cc(C)c(Cl)cc1OC)N1Cc2ccccc2C1=O (stereo unspecified),i,?,?,i,nt
Oc1ccc(Br)cc1CNc1ccccn1,i,?,?,i,i
CC(C)(C)C1CCC(C(=O)NCCc2ccc(S(N)(=O)=O)cc2)CC1 (stereo unspecified),i[0.0935 µM],?,?,i,i
COCC1CCCN(C(=O)c2ccc(OC3CCN(Cc4ccccn4)CC3)cc2)C1 (stereo unspecified),i,i,i,i,i
O=C(CCc1c[nH]c2ccccc12)NCc1ccco1,i,i,i,i,i
O=C(CC(c1cccs1)N1Cc2ccccc2C1=O)Nc1ccccc1F (stereo unspecified),i,?,20.6µM,i,nt
SMILES,TDP1 inh,DT40 TDP1 CPT,DT40 TDP1 no CPT,miR-21 reporter,uPA generation
CCOC(=O)C1CCN(C(=O)CSc2ccccc2)CC1,i,i,i,i,i
Cc1cc(C(=O)NNC(=O)c2c(-c3c(Cl)cccc3Cl)noc2C)no1,i,i,i,i,i
Cc1nc(C(=O)NNC(=O)c2c(-c3c(Cl)cccc3Cl)noc2C)cs1,nt,?,16.4µM,i,i
Cc1onc(-c2c(Cl)cccc2Cl)c1C(=O)Nc1nc(C(C)(C)C)cs1,i,?,23.1µM,i,i
O=C(Nc1c(C(=O)O)oc2ccccc12)c1ccc(C(F)(F)F)cc1,i,?,?,i,nt
O=C(Cc1ccc(F)cc1)Nc1c2c(nn1-c1cccc(Cl)c1)CS(=O)C2 (stereo unspecified),i,i,i,i,i
O=C(c1cccc(-c2ccco2)c1)N1CCCC(N2CCN(c3ccc(F)cc3)CC2)C1 (stereo unspecified),i,?,?,i,i
Cc1csc(NC(=O)C2(C)CCN2C(=O)C(C)C)c1C#N (stereo unspecified),nt,8.2µM,8.2µM,nt,nt
NC(=S)N=Nc1c(O)n(Cc2ccc(Br)cc2)c2ccccc12,i,5.17µM,4.61µM,i,i
NC(=S)N=Nc1c(O)n(Cc2ccc(F)cc2)c2ccccc12,i,16.4µM,?,i,?
Cc1ccc2c(c1)c(N=NC(N)=S)c(O)n2Cc1ccccc1,i,4.11µM,3.26µM,i,i
C#Cc1ccc([C@@H]2C=C(C(=O)O)O[C@H](OCC)[C@H]2CCCO)cc1,nt,i,i,nt,i
Cc1ccc(NC2=C(CC(=O)O)C(c3ccc(F)cc3)N(c3ccc(C)cc3)C2=O)cc1 (stereo unspecified),nt,i,?,i,nt
O=S1(=O)CC(N2CCN(CCO)CC2)CN1Cc1cn(Cc2ccc(F)cc2)nn1 (stereo unspecified),nt,i,i,nt,nt
Cc1cccc(C)c1-n1nnnc1C(c1ccnc2ccccc12)N1CCN(CC(=O)NC(C)C)CC1 (stereo unspecified),nt,i,i,nt,nt
CN(C)CCN1CCN(C(c2ccnc3ccccc23)c2nnnn2-c2ccc3c(c2)OCCO3)CC1 (stereo unspecified),nt,i,16.4µM,nt,nt
O=C(Nc1ccc(F)cc1)C(c1ccnc2ccccc12)N1CCN(c2cccc(C(F)(F)F)n2)CC1 (stereo unspecified),nt,?,20.6µM,nt,nt
O=C(Nc1ccc(F)cc1)C(c1ccnc2ccccc12)N1CCN(CC(=O)N2CCCC2)CC1 (stereo unspecified),nt,i,i,nt,nt
O=C(OCc1ccccc1)N1CCN(C(c2ccnc3ccccc23)c2nnnn2-c2ccc3c(c2)OCCO3)CC1 (stereo unspecified),nt,23.1µM,8.2µM,nt,nt
c1ccc2c(C(c3nnnn3-c3ccc4c(c3)OCCO4)N3CCCC3)ccnc2c1 (stereo unspecified),nt,i,?,nt,nt
Cc1cccc(C)c1-n1nnnc1C(c1ccnc2ccccc12)N1CCCN(C(=O)OC(C)(C)C)CC1 (stereo unspecified),nt,?,18.4µM,nt,nt
Cc1cccc(C)c1NC(=O)C(c1ccnc2ccccc12)N1CCN(CCN(C)C)CC1 (stereo unspecified),nt,4.61µM,5.17µM,nt,nt
COc1ccc(CCn2c(=N)c(C(=O)NC3CCCCC3)cc3c(=O)n4ccccc4nc32)cc1,i,6.51µM,4.11µM,i,i

# Screening results from PubChem.
